Measurements as given in patent publication US20120323164A1, “PHOTODYNAMIC THERAPY WITH PHTHALOCYANINES AND RADICAL SOURCES” (Case Western Reserve University, priority 2011, published 2012).

Assay: Qualitative solubility in organic solvents

Substance: SiPc[OCH2CH═C(CH3)(CH2)2CH═C(CH3)2]2 [Pc 302]
- solubility (in words): soluble in CH2Cl2, dimethylformamide, pyridine and toluene, and insoluble in hexanes and methanol
